Source: patent US9345742B2, “Aminostatin derivatives for the treatment of arthrosis” (MERCK PATENT GMBH, priority 2011, dated 2016)

Protein sequences, listed by entry. Tags and fused reporters are not part of them. Residues count along the entry.
UniProt P07339, 65-161: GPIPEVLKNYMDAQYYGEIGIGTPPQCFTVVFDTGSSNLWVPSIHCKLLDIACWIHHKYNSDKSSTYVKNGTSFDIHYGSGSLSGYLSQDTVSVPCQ
UniProt P07339, 169-412: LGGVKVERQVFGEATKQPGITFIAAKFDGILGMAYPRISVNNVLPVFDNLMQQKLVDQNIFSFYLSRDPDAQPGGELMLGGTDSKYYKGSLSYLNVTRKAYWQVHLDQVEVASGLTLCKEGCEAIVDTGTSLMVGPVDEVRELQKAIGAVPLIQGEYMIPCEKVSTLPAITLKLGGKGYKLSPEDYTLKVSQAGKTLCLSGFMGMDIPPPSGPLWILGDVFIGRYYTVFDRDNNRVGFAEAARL

The compounds below were run against cathepsin D isolated from the human liver (Homo sapiens (Human), UniProt P07339) (assay: In-vitro fluorescence assay for identification of cathepsin D inhibitors). Details: cathepsin D 1.4 nM, pH 5.5; read-out: CatD assay IC50-.
Assay type: biochemical
Experimental: In order to identify modulators of cathepsin D activity, a continuous enzymatic test was carried out with a synthetic peptide which carries a fluorescent group (MCA=(7-methoxycoumarin-4-yl)acetyl) which is quenched by energy transfer from a Dpn (2,4 dinitrophenyl) group on the same molecule, in Greiner 384-well nb microtitre plates. Cleavage of the peptidic substrate by cathepsin D causes an increase in the fluorescence intensity. In order to determine the efficacy of substances, the time-dependent increase in the fluorescence intensity in the presence of the substance was compared with the time-dependent increase in fluorescence in the absence of substances. The reference substance used was pepstatin A (Sigma-Aldrich). The substrate used was MCAGKPILFFRLK(Dnp)d-R—NH2 (Enzo Life Sciences, Lörrach). The enzyme employed was cathepsin D isolated from the human liver (Sigma-Aldrich) in a final concentration of 1.4 nM. The test was carried out in 100 mM sodium acetate buffer, 1.25% (v/v) of DMSO, 0.25% (w/v) of Chaps, pH 5.5. 2 μl of each substance solution with serially diluted substance concentration were added to in each case 4 μl of cathepsin D solution and incubated at room temperature for 10 min. The reaction was started by addition of 2 μl of substrate solution (final concentration 5 μM). After carrying out a starting-point fluorescence measurement (excitation wavelength 340 nm/emission wavelength 450 nm) using an Envision multilabel reader (Perkin Elmer), the reaction was incubated at room temperature for 60 min. The amount of peptide fragment cleaved off during the reaction time was subsequently measured by determination of the increase in the fluorescence intensity at 450 nm (excitation wavelength 340 nm).

IC50 [nM]	SMILES
3.9	CC[C@H](C)[C@H](NC(=O)C[C@H](N)[C@H](Cc1ccccc1)NC(=O)[C@@H](NC(=O)[C@H](Cc1ccccc1)NC(=O)CC(C)C)C(C)C)C(=O)N[C@H](C(=O)OC)C(C)C [Compound 19, Methyl (S)-2-[(2S,3S)-2-((3S,4S)-3-amino-4-{(S)-3-methyl-2-[(S)-2-(3-methylbutyrylamino)-3-phenylpropionylamino]butyrylamino}-5-phenylpentanoylamino)-3-methyl-pentanoylamino]-3-methylbutyrate]
4.1	CC[C@H](C)[C@H](NC(=O)C[C@H](N)[C@H](Cc1ccccc1)NC(=O)[C@@H](NC(=O)[C@H](Cc1ccccc1)NC(=O)CC(C)C)C(C)C)C(=O)N[C@H](C(=O)O)C(C)C [Compound 33, (S)-2-[(2S,3S)-2-((3S,4S)-3-Amino-4-{(S)-3-methyl-2-[(S)-2-(3-methylbutyrylamino)-3-phenylpropionylamino]-1-oxobutyl-amino}-5-phenylpentanoylamino)-3-methylpentanoylamino]-3-methyl-butyric acid]

SMILES	IC50 [nM]
CC[C@H](C)[C@H](NC(=O)C[C@H](N)[C@H](Cc1ccccc1)NC(=O)[C@@H](NC(=O)[C@H](CC(C)C)NC(=O)CC(C)C)C(C)C)C(=O)NCCc1ccccc1 [Compound 24, N-((1S,2S)-2-Methyl-1-phenethyl-carbamoylbutyl)-(S)-3-amino-4-{(S)-(S)-3-methyl-2-[(S)-4-methyl-2-(3-methylbutyryl-amino)pentanoylamino]butyrylamino}-5-phenylpentanamide]	240
